# Data as given in PubChem BioAssay AID504706 (National Center for Advancing Translational Sciences (NCATS), 2011).
# Only a part is listed here, and it is no random draw. Results filed as inconclusive are left out. Activity calls are given as the source filed them. Calls follow the shape of the dose curve; as a rule, active = well fitted activation curve with a large enough effect; inconclusive = small, poorly fitted or top-dose-only effect; inactive = no such curve, though single readings can be large or run the other way.
# Assay: qHTS assay for re-activators of p53 using a Luc reporter; also: % of control where 0% means no effect; nearly all actives have a fitted effect of over 45% in size
# Conditions: H1299 p53-A138V BP100-luciferase reporter, luminescence, 24 h; at 92.2 µM (top of the series)
# From the text: The p53 tumor suppressor plays a key role in suppression of tumorigenesis and in human carcinogenesis. It is frequently found inactivated in human cancers, mainly by point mutation. These point mutations are found in a wide variety of human cancers and a majority of them affect the DNA binding domain of the protein. The point mutations either alter native p53 conformation or abolish DNA contact. Additionally, cancer cells with p53 mutations are more resistant to chemo-radiation therapies. In order to find activators to reactivate this important protein, a cell-based screen for p53-dependent luciferase-reporter expression was developed. A p53-null H1299 lung cancer cell line was stably co-transfected with a temperature sensitive p53 mutant, p53-A138V, and a p53-responsive BP100-luciferase reporter. This cell model has previously been characterized in a gene chip profiling experiment for p53 activation. By lowering the culture temperature from 37 deg C (mutant p53 conformation) to 32 deg C (w.t. p53 conformation), a 30-60 fold increase in activation of luciferase activity is observed. At assay temperate, 37 deg C, basal reporter expression is very low and after the addition of detection reagent, a luminescent read-out is carried out. NIH Chemical Genomics Center [NCGC] NIH Molecular Libraries Probe Production Centers Network [MLPCN] MLPCN Grant: DA031088-01A1 Assay Provider (PI): Yi Sung, University of Michigan at Ann Arbor
# 5ul of 1000 cells per well are dispensed in all wells except column 4, into white solid-bottom TC-treated Kalypsys plates. The cells are kept in Opti-MEM and supplemented with 10% FBS and dispensed using a Multidrop (Thermo). Then using the Kalypsys pin-tool, 23nl of compounds are pinned. The compounds are starting concentration at 10mM, with 1:5 dilution, 4 points, and the control compound nocodazole is pinned in column 1 at 25mM, 1:3 dilution, in duplicate, 25mM nocodazole is pinned in column 2. Please note, all concentrations are working concentrations. 5ul of 1pM purified luciferase enzyme is dispensed using the Kalypsys dispenser in column 4. Plates are incubated for 24 hrs at 37 deg C, 5% CO2, and 95% humidity. Then 4ul of the detection reagent Amplite (ABD Bioquest) is added using the Kalypsys dispenser. Plates are incubated for 10 min at ambient room temperature and are then read on the ViewLux (Perkin Elmer) using a clear filter for a luminescent read-out.
row,SMILES,"activity change, positive = activation"
1,COc1ccccc1OP(C)(=O)Nc1ccccc1Br (centres undefined),inactive: 0.442%
2,CC(C)(C)c1ccc(OP(C)(=O)O)cc1,inactive: -0.802%
3,CP(=O)(Nc1ccc(Cl)cc1)Oc1ccc(F)cc1 (centres undefined),inactive: 7.94%
4,CN(C)C(=O)c1c([N+](=O)[O-])cc([N+](=O)[O-])cc1[N+](=O)[O-],inactive: -8.29%
5,CCN(CC)CC(O)COC(=O)C(O)(c1ccccc1)C1CCCCC1 (centres undefined),inactive: -20.8%
6,COc1ccc(OP(C)(=O)Nc2ccc(Br)cc2)cc1 (centres undefined),inactive: 1.12%
7,COc1ccccc1OP(C)(=O)Nc1c(C)n(C)n(-c2ccccc2)c1=O (centres undefined),inactive: 7.19%
8,O=C(OCCCN1CCCC1)C(O)(c1ccccc1)C1CCCCC1 (centres undefined),inactive: -8.65%
9,CP(=O)(Oc1ccccc1)N1CCOC1=O (centres undefined),inactive: 5.27%
10,CCc1ccc(OP(C)(=O)Nc2cccnc2)cc1 (centres undefined),inactive: -2.19%
11,CCOC(=O)c1ccc(NP(C)(=O)Oc2ccc(Cl)cc2)cc1 (centres undefined),inactive: -6.01%
12,CP(=O)(OC12CC3CC(CC(C3)C1)C2)OC12CC3CC(CC(C3)C1)C2,inactive: 17.9%
13,Cc1nc2ccc3ccccc3c2o1.O=[N+]([O-])c1cc([N+](=O)[O-])c(O)c([N+](=O)[O-])c1,inactive: -53.7%
14,CP(=O)(Nc1ccc(Cl)cc1Cl)Oc1ccccc1 (centres undefined),inactive: -1.07%
15,CP(=O)(OCCOc1ccccc1)OCCOc1ccccc1,inactive: -1.64%
16,Cc1cc(C)cc(OP(C)(=O)Nc2cccc(C(F)(F)F)c2)c1 (centres undefined),inactive: -0.561%
17,COc1ccccc1OP(C)(=O)Nc1ccc(C)c(C)c1 (centres undefined),inactive: -1.67%
18,COc1ccc(OP(C)(=O)Nc2ccccc2Br)cc1 (centres undefined),inactive: -5.73%
19,Cc1c(NP(C)(=O)Oc2ccc(C(C)C)cc2)c(=O)n(-c2ccccc2)n1C (centres undefined),inactive: -5.01%
20,O=[N+]([O-])c1cc([N+](=O)[O-])c(Nc2ccccn2)c([N+](=O)[O-])c1,inactive: -11.5%
21,CP(=O)(Nc1ccccn1)Oc1ccccc1 (centres undefined),inactive: -7.07%
22,COc1ccccc1OP(C)(=O)Nc1ccc(C)cc1C (centres undefined),inactive: -0.702%
23,CCc1ccc(OP(C)(=O)O)cc1,inactive: -6.42%
24,COc1ccccc1OP(C)(=O)Nc1ccc(Br)cc1 (centres undefined),inactive: 1.79%
25,COc1ccc(OP(C)(=O)Nc2ccccn2)cc1 (centres undefined),inactive: -1.54%
26,CN(C)CCOC(=O)C(O)(c1ccccc1)C1CCCC1 (centres undefined),inactive: -1.36%
27,O=C(OCCN1CCN(CCOCc2ccccc2)CC1)C(O)(c1ccccc1)c1ccccc1,inactive: -6.5%

row,SMILES,"activity change, positive = activation"
1,CP(=O)(Nc1ccccc1F)Oc1ccccc1 (centres undefined),inactive: -1.02%
2,CC(C)c1ccc(OP(C)(=O)Nc2ccc(SC(F)(F)F)cc2)cc1 (centres undefined),inactive: -0.0053%
3,CCN(CC)CCCOC(=O)C(O)(c1ccccc1)C1CCCCC1 (centres undefined),inactive: -8.08%
4,CP(=O)(Nc1ccccc1)Oc1ccc(F)cc1 (centres undefined),inactive: 2.5%
5,CCCCCOc1ccc(NP(C)(=O)Oc2ccc(Cl)cc2Cl)cc1 (centres undefined),inactive: 0.35%
6,CCOC(=O)c1ccc(NP(C)(=O)Oc2ccc(F)cc2)cc1 (centres undefined),inactive: -7.51%
7,COc1ccc(OP(C)(=O)Nc2ccc(SC(F)(F)F)cc2)cc1 (centres undefined),inactive: -4.74%
8,O=[N+]([O-])c1ccc(OP2(=O)COCCO2)cc1 (centres undefined),inactive: -0.424%
9,Cc1cc(-c2cccc3ccccc23)c(C)cn1.O=[N+]([O-])c1cc([N+](=O)[O-])c(O)c([N+](=O)[O-])c1,inactive: -0.838%
10,COc1ccc(OP(C)(=O)Nc2cccc(Br)c2)cc1 (centres undefined),inactive: -10.8%
11,CN(C)CCOC(=O)C(O)(c1ccccc1)C1CCCCC1 (centres undefined),inactive: 3.37%
12,COc1ccc(NP(C)(=O)Oc2ccccc2OC)cc1 (centres undefined),inactive: -0.577%
13,CP(=O)(Nc1ccc2c(c1)OCCO2)Oc1ccccc1 (centres undefined),inactive: 24.1%
14,Cc1ccccc1NP(C)(=O)Nc1ccccc1C,inactive: -12.9%
15,CP(=O)(Nc1ccc(SC(F)(F)F)cc1)Oc1ccc(F)cc1 (centres undefined),inactive: -4.65%
16,CCOP(C)(=S)SCC(=O)NC(C)(CC)C(=O)O (centres undefined),inactive: 3.31%
17,Cc1nc2ccc3ccccc3c2s1.O=[N+]([O-])c1cc([N+](=O)[O-])c(O)c([N+](=O)[O-])c1,inactive: 2.95%
18,O=[N+]([O-])c1cc([N+](=O)[O-])c(-n2nnc3ccccc32)c([N+](=O)[O-])c1,inactive: -1.39%
19,COc1ccccc1OP(C)(=O)Nc1c(C)cccc1C (centres undefined),inactive: 7.88%
20,CN1CCCCC1COC(=O)C1(O)c2ccccc2CCc2ccccc21 (centres undefined),inactive: -13%
21,CCCOc1ccc(NP(C)(=O)Oc2ccc(Cl)cc2)cc1 (centres undefined),inactive: -3.8%
22,CP(=O)(Nc1ccc(SC(F)(F)F)cc1)Oc1ccccc1 (centres undefined),inactive: -3.94%
23,CC1=C2N=C(C=C3N=C(C(C)=C4[N-][C@@](C)([C@@H]5N=C1[C@](C)(CCC(=O)NC[C@@H](C)OP(=O)([O-])O[C@H]1[C@@H](O)[C@@H](n6cnc7cc(C)c(C)cc76)O[C@@H]1CO)[C@H]5CC(N)=O)[C@@](C)(CC(N)=O)[C@@H]4CCC(N)=O)[C@@](C)(CC(N)=O)[C@@H]3CCC(N)=O)C(C)(C)[C@@H]2CCC(N)=O.[C-]#N.[Co+3],inactive: -17.4%
24,O=[N+]([O-])c1cc([N+](=O)[O-])c(Nc2nnnn2CCO)c([N+](=O)[O-])c1,inactive: 6.88%
25,CC1=NCCc2c1[nH]c1ccccc21.O=[N+]([O-])c1cc([N+](=O)[O-])c(O)c([N+](=O)[O-])c1,inactive: -4.71%
26,Cc1ccc(C)c(NP(C)(=O)Oc2ccccc2)c1 (centres undefined),inactive: -9.89%
27,Cc1cc(C)cc(OP(C)(=O)Nc2ccccn2)c1 (centres undefined),inactive: -4.79%

row,SMILES,"activity change, positive = activation"
1,CP(=O)(Nc1cccc(Br)c1)Oc1ccccc1 (centres undefined),inactive: -0.0018%
2,COc1ccccc1OP(C)(=O)Nc1cccc(Br)c1 (centres undefined),inactive: -1%
3,CCOC(=O)c1ccc(NP(C)(=O)Oc2cc(C)cc(C)c2)cc1 (centres undefined),inactive: -2.32%
4,Cc1cc(C)cc(OP(C)(=O)Nc2ccc(C)cc2C)c1 (centres undefined),inactive: -1.1%
5,CCN(CC)CCCOC(=O)C(O)(c1ccccc1)c1ccccc1,inactive: 6.69%
6,COc1ccccc1OP(C)(=O)Nc1ccc(C)cc1 (centres undefined),inactive: -24.5%
7,Cc1ccc(NP(C)(=O)Oc2ccccc2)c(C)c1 (centres undefined),inactive: -5.96%
8,CCOC(=O)c1ccc(NP(C)(=O)Oc2ccccc2)cc1 (centres undefined),inactive: 1.13%
9,Cc1cc(C)cc(OP(C)(N)=O)c1 (centres undefined),inactive: -3.45%
10,COc1ccccc1OP(C)(=O)Nc1cc(Cl)ccc1C (centres undefined),inactive: -3.39%
11,COc1ccc(OP(C)(=O)Nc2cccc(F)c2)cc1 (centres undefined),inactive: -0.781%
12,O=[N+]([O-])c1cc([N+](=O)[O-])c(Nc2cccnc2)c([N+](=O)[O-])c1,inactive: -19.2%
13,O=[N+]([O-])c1ccc2c(c1)C=Nc1ccccc1O2,inactive: 4.94%
14,CC(C)(C)c1ccc(OP(C)(=O)Nc2ccc(SC(F)(F)F)cc2)cc1 (centres undefined),inactive: -2.67%
15,Cc1cccc(C)c1OP(C)(N)=O (centres undefined),inactive: -1.14%
16,CP(=O)(Nc1ccccc1Br)Oc1ccccc1 (centres undefined),inactive: -4.87%
17,COc1ccccc1OP(C)(=O)Nc1ccccc1 (centres undefined),inactive: 2.21%
18,CCOC(=O)c1ccc(NP(C)(=O)Oc2ccc(OC)cc2)cc1 (centres undefined),inactive: -19.9%
19,CCOP(C)(=S)SCC(=O)NC(C)C(=O)O (centres undefined),inactive: 3%
20,Cc1cccc(C)c1OP(C)(=O)Nc1ccc(SC(F)(F)F)cc1 (centres undefined),inactive: -1.63%
21,CP(=O)(Nc1ccc(SC(F)(F)F)cc1)Oc1ccc(Cl)cc1 (centres undefined),inactive: -1.54%
22,CP(=O)(Oc1ccccc1)OC(c1ccccc1)C(F)(F)F (centres undefined),inactive: 2.41%
23,CP(=O)(NC(=O)Nc1ccccc1)Oc1ccccc1 (centres undefined),inactive: -2.02%
24,CCc1ccc(OP(C)(=O)N2CCN(c3ccc([N+](=O)[O-])cc3)CC2)cc1 (centres undefined),inactive: -2.31%
25,Cc1cc(C)cc(OP(C)(=O)Nc2ccc(SC(F)(F)F)cc2)c1 (centres undefined),inactive: 4.4%
